In publication PMC5681660, “Reduced hepatitis B and D viral entry using clinically applied drugs as novel inhibitors of the bile acid transporter NTCP” (Scientific Reports, 2017):
Where a name gives a salt, the structure may show the parent alone.

What follows are molecules tested against T1, human NTCP (Homo sapiens, UniProt Q14973) (assay: Screening fluorescent competitive Myrcludex B-FITC binding assay (96-well, 10 µM drug)). Conditions: 0.5 h, read-out: %NTCP binding, screening Myrcludex B-FITC binding, 10 µM drug, Prestwick library.
T1 sequence (Q14973 1-349): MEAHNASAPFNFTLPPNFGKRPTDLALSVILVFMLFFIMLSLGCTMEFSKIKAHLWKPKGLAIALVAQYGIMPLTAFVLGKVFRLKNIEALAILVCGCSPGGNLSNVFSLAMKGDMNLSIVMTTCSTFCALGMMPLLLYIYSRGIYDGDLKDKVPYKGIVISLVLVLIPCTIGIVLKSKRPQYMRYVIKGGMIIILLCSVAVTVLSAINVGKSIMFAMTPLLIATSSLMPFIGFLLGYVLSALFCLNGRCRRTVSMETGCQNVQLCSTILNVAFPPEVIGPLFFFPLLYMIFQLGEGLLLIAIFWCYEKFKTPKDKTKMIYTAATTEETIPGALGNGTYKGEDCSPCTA

Compared with `CC(NC(C)(C)C)C(=O)c1cccc(Cl)c1` (centres unmarked) [Bupropion hydrochloride], `CCC1(CC)C(=O)C=CNC1=O` [Pyrithyldione] is higher in remaining activity at 10 µM: 60.3% for the first, 93.3% for the second.

Same assay, conditions: screening Myrcludex B-FITC binding, 10 µM drug

Compared with `CC(=O)O[C@H]1C[C@@]2(C)[C@@H](C[C@@H](O)[C@H]3[C@@]4(C)CC[C@@H](O)[C@@H](C)[C@@H]4CC[C@@]32C)/C1=C(\CCC=C(C)C)C(=O)O` [Fusidic acid sodium salt], `CC(=O)[C@@]1(O)CC[C@H]2[C@@H]3C[C@H](C)C4=CC(=O)C=C[C@]4(C)[C@@]3(F)[C@@H](O)C[C@@]21C` [Fluorometholone] is higher in B-score binding assay: 0.137 for the first, 0.269 for the second.

Going from `Cc1ncc([N+](=O)[O-])n1CC(C)O` (centres unmarked) [Secnidazole] to `COc1ccccc1OCC(O)CO` (centres unmarked) [Guaifenesin], the B-score binding assay falls from 0.076 to -0.891.

First: Nc1ccc(S(=O)(=O)Nc2ccc(Cl)nn2)cc1 [Sulfachloropyridazine]
Second: Clc1ccc(Nc2nnc(Cc3ccncc3)c3ccccc23)cc1 [Vatalanib]
The B-score binding assay of the first is lower: -0.75 for the first, -0.252 for the second.

Going from `COC(=O)C1=C(C)NC(C)=C(C(=O)OC(C)C)C1c1cccc2nonc12` (centres unmarked) [Isradipine] to `CC(C)Oc1ccc2c(=O)c(-c3ccccc3)coc2c1` [Ipriflavone], the B-score binding assay rises from -1.994 to -1.051.

Compared with `O=c1[nH]c2ccccc2n1C1CCN(CCCC(c2ccc(F)cc2)c2ccc(F)cc2)CC1` [Pimozide], `O=C1NCN(c2ccccc2)C12CCN(CCCC(c1ccc(F)cc1)c1ccc(F)cc1)CC2` [Fluspirilen] is lower in B-score binding assay: -0.085 for the first, -0.65 for the second.

First: CN1CCN2c3ncccc3Cc3ccccc3C2C1 (centres unmarked) [Mirtazapine]
Second: Cc1c(NC(=O)c2cccnc2)c(=O)n(-c2ccccc2)n1C [Nifenazone]
The B-score binding assay of the first is higher: -0.35 for the first, -0.604 for the second.

Going from `C#C[C@]1(OC(C)=O)CC[C@H]2[C@@H]3CCC4=CC(=NO)CC[C@@H]4[C@H]3CC[C@@]21CC` (mixture of isomers) [Norgestimate] to `C=C1/C(=C\C=C2/CCC[C@]3(C)[C@@H]([C@H](C)CCCC(C)C)CC[C@@H]23)C[C@@H](O)C[C@@H]1O` [Alfacalcidol], the B-score binding assay rises from -2.146 to 0.028.

First: CC(NC(C)(C)C)C(=O)c1cccc(Cl)c1 (centres unmarked) [Bupropion hydrochloride]
Second: O=C(O)Cc1ccccc1Nc1c(Cl)cccc1Cl [Diclofenac sodium]
The B-score binding assay of the first is lower: -0.656 for the first, 0.909 for the second.

First: Cc1cccc(CN2CCN(C(c3ccccc3)c3ccc(Cl)cc3)CC2)c1.Cl.Cl (centres unmarked) [Meclozine dihydrochloride]
Second: CC(C)(O)c1ccccc1CC[C@@H](SCC1(CC(=O)O)CC1)c1cccc(/C=C/c2ccc3ccc(Cl)cc3n2)c1 [Montelukast]
The B-score binding assay of the first is higher: 3.865 for the first, -2.476 for the second.

First: CCN1CCC[C@H]1CNC(=O)c1c(OC)ccc(Br)c1OC.Cl [Remoxipride Hydrochloride]
Second: C=CCN1CCCC1CNC(=O)c1cc2[nH]nnc2cc1OC.Cl (centres unmarked) [Alizapride HCl]
The B-score binding assay of the first is higher: -0.332 for the first, -0.631 for the second.

First: CC1=C(/C=C/C(C)=C/C=C/C(C)=C\C(=O)O)C(C)(C)CCC1 [Isotretinoin]
Second: CCCCN1CCCCC1C(=O)Nc1c(C)cccc1C (centres unmarked) [Bupivacaine hydrochloride]
The B-score binding assay of the first is lower: -1.949 for the first, -1.06 for the second.

First: CCC1(CC)C(=O)C=CNC1=O [Pyrithyldione]
Second: CCCCCN(CCCCC)C(=O)C(CCC(=O)[O-])NC(=O)c1ccc(Cl)c(Cl)c1.[Na+] (centres unmarked) [Lorglumide sodium salt]
The B-score binding assay of the first is lower: -0.586 for the first, -0.115 for the second.

Going from `Oc1ccc(OCc2ccccc2)cc1` [Monobenzone] to `CN(C(=O)CN(CCO)CC(=O)N(C)C(C)(C)Cc1ccccc1)C(C)(C)Cc1ccccc1` [Oxethazaine], the B-score binding assay falls from -0.108 to -0.191.

Compared with `COCC(=O)Nc1c(I)c(C(=O)NCC(O)CO)c(I)c(C(=O)N(C)CC(O)CO)c1I` (centres unmarked) [Iopromide], `CC[C@@H](CO)NCCN[C@@H](CC)CO` [Ethambutol dihydrochloride] is lower in B-score binding assay: 1.185 for the first, 0.312 for the second.

`CN(C)c1nc(N(C)C)nc(N(C)C)n1` [Altretamine] was tested, and the B-score binding assay was 0.599.

Same assay, conditions: screening Myrcludex B-FITC binding, 10 µM drug, Prestwick library

First: Cc1cccc(CN2CCN(C(c3ccccc3)c3ccc(Cl)cc3)CC2)c1.Cl.Cl (centres unmarked) [Meclozine dihydrochloride]
Second: O=C1NCN(c2ccccc2)C12CCN(CCCC(c1ccc(F)cc1)c1ccc(F)cc1)CC2 [Fluspirilen]
The “%NTCP binding” value of the first is lower: 105.599% for the first, 115.162% for the second.

Going from `CCN1CCC[C@H]1CNC(=O)c1c(OC)ccc(Br)c1OC.Cl` [Remoxipride Hydrochloride] to `C=CCN1CCCC1CNC(=O)c1cc2[nH]nnc2cc1OC.Cl` (centres unmarked) [Alizapride HCl], the “%NTCP binding” value falls from 104.815% to 68.82%.
